Yeast mating assay B: variants of the scFv Ab-14

Binding partner: SARS-CoV-2 spike HR2 peptide, sequence PDVDLGDISGINAS.

Parent: Ab-14, a human scFv built as VH, three GGGGS repeats, VL. Only the CDRs of the heavy chain vary.
VH: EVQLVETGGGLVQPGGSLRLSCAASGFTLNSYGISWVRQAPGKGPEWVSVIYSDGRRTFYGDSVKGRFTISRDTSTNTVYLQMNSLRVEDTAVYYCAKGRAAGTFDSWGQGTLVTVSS
VL: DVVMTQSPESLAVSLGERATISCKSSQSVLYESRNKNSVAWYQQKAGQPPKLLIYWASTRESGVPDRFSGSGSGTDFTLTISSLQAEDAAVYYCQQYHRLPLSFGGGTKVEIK

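These sequences belong to a second round, designed from the earlier measurements on random variants of the parent. Several design methods are mixed in this list. The scFvs were displayed on barcoded MATa yeast, the peptide on MATalpha yeast. Pairs that bind mate more often; barcode pairs of the diploids are counted by sequencing. A regression on co-assayed BCL2-family reference pairs converts the normalised counts of each replicate to an apparent Kd. Mating was done six times.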

Each variant is given by its three heavy chain CDRs, as the data file delimits them; those of the parent are GFTLNSYGIS, VIYSDGRRTFYGDSVK, GRAAGTFDS.
Affinities are written as log10 Kd with Kd in nM; a lower number is a better binder.
The mean shown is taken over the replicates in which the pair was detected.
An entry "nd" has no value in the source: the pair was not observed among the diploids in any replicate. This suggests poor binding but is not conclusive.
The list is sorted by this average, lowest first, undetected variants last.
Three control strains display no target. For all heavy chain designs, 1% of the pairings with them gave a signal, with a median of 2.08 and one signal in twenty below 0.84, so weak values seen in few replicates may be background. The control count says in how many pairings with the empty strains this scFv gave a signal.
Of ten entries with the parent sequence, four were seen in most replicates (averages 0.34 to 2.37), three in one and three in none, so single entries are noisy.
A sequence measured in both rounds can read differently, since the two assays cover different ranges.
The authors averaged sequences with at least three values out of six and counted those with two or fewer as poor binders.

log10 Kd (nM), mean | replicates with signal | empty controls | CDR-H1 | CDR-H2 | CDR-H3
-0.85 | 6/6 | 0/18 | GFDLNEYGIS | VIYADGMRTAYTDDVK | GQNAGTFDV
-0.74 | 6/6 | 1/18 | GFDLNEYGIS | VIYADGQRTAYVDSVK | GNVAGTFDQ
-0.66 | 6/6 | 0/18 | GFDIDEYGIS | VIYADGMRTFYADSVK | GTNAGTFDS
-0.56 | 6/6 | 1/18 | GFDLDEYGIS | VIYADGMRKAYADSVK | GNVAGTFDQ
-0.53 | 6/6 | 0/18 | GFDLNEYGIS | VIYADGRRTAYADSVK | GKNAGTFNV
-0.48 | 6/6 | 1/18 | GFDLNEYGIS | VIYADGMRTYYADSVK | GNTAGTFDM
-0.39 | 6/6 | 0/18 | GFDLNEYGIS | VIYADGVRTAYADSVK | GEIAGTFDI
-0.39 | 6/6 | 0/18 | GFDIDEYGIS | VIYADGRRTAYADSVK | GTNAGTFDV
-0.37 | 6/6 | 0/18 | GFDLNEYGIS | VIYADGRRTAYIDSVK | GEIAGTFDK
-0.34 | 6/6 | 0/18 | GFDLNEYGIS | VIYADGRRTQYIDSVK | GNEAGTFDD
-0.28 | 6/6 | 0/18 | GFDLNEYGIS | VIYADGMRTAYSDDVK | GNVAGTFDI
-0.25 | 6/6 | 0/18 | GFDLDEYGIS | VIYADGKRTAYADSVK | GNQAGTFDV
-0.21 | 6/6 | 0/18 | GFDLNEYGIS | VIYADGMRTYYADDVK | GNNAGTFDM
-0.12 | 6/6 | 0/18 | GFDLNSYGIS | VIYSDGRRTFYGDSVK | GSEAGTFDS
-0.07 | 6/6 | 1/18 | GFDLDEYGIS | VIYADGSRTAYSDSVK | GNVAGTFDQ
0.02 | 6/6 | 0/18 | GFDIDEYGIS | VIYADGMRTFYADSVK | GTNAGTFDV
0.08 | 6/6 | 0/18 | GFSLNSYGIS | VIYSDGRRTFYSDSVK | GSAAGTFDS
0.14 | 6/6 | 1/18 | GFSLNSYGIS | VIYSDGRRTFYQDSVK | GEVAGTFDS
0.14 | 6/6 | 0/18 | GFDLNSYGIS | VIYSDGRRTFYGDSVK | GREAGTFDT
0.21 | 6/6 | 0/18 | GFDLNEYGIS | VIYADGMRTAYADDVK | GGNAGTFDM
0.30 | 6/6 | 0/18 | GFSLNSYGIS | VIYSDGRRTFYSDQVK | GRTAGTFDS
0.31 | 5/6 | 1/18 | GFHLNSYGIS | VIYSDGMRTFYSDSVK | GRTAGTFDS
0.36 | 4/6 | 0/18 | KFTLNSYGIS | VIYADGRRTFYGDSVK | GRTAGTFDS
0.48 | 6/6 | 0/18 | GFSLNSYGIS | VIYSDGRRTFYSDSVK | GEAAGTFDD
0.49 | 5/6 | 0/18 | GFWLNNYGIS | VIYADGRRTFYGDSVK | GTAAGTFDS
0.52 | 6/6 | 0/18 | GFTLDSYGIS | VIYSDGRRTFYGDSVK | GQTAGTFDS
0.57 | 6/6 | 0/18 | GFSLNSYGIS | VIYSDGRRTFYIDSVK | GREAGTFDT
0.64 | 6/6 | 0/18 | GFELNSYGIS | VIYSDGRRTFYADSVK | GRQAGTFDS
0.69 | 6/6 | 0/18 | GFDLESYGIS | VIYADGRRTFYADDVK | GENAGTFDI
0.75 | 6/6 | 0/18 | GFDLNSYGIS | VIYSDGRRTFYMDSVK | GQAAGTFDS
0.97 | 1/6 | 0/18 | GFDLNEYGIS | VIYADGRRQAYIDSVK | GHVAGTFDV
0.98 | 6/6 | 1/18 | GFTLNEYGIS | VIYSDGRRTFYGDSVK | GHAAGTFDF
1.01 | 2/6 | 0/18 | GFSLNSYGIS | VIYSDGRRTFYVDQVK | GRNAGTFDS
1.02 | 5/6 | 0/18 | GFWLNEYGIS | VIYSDGHRTFYHDSVK | GRTAGTFDS
1.03 | 6/6 | 0/18 | GFQLNDYGIS | VIYSDGRRTFYGDSVK | GRTAGTFDT
1.09 | 4/6 | 0/18 | GFTLNSYGIS | VIYSDGKRTFYGDSVK | GRLAGTFDT
1.11 | 3/6 | 0/18 | GFFLNDYGIS | VIYSDGRRTFYGDSVK | GEAAGTFDS
1.16 | 6/6 | 0/18 | GFTLNMYGIS | VIYADGRRTFYGDSVK | GRAPGTFDS
1.28 | 6/6 | 0/18 | GFDLNQYGIS | VIYSDGRRTFYGDSVK | GQAAGTFDS
1.49 | 4/6 | 2/18 | KFGLNEYGIS | VIYSDGRRTFYGDSVK | GKTAGTFDS
1.58 | 6/6 | 0/18 | GFTLNSYGIS | VIYSDGRRTAYADSVK | GRAGGTFDS
1.68 | 2/6 | 2/18 | GKSLNSYGIS | VIYADGRRTFYGDSVK | GKAAGTFDS
2.21 | 6/6 | 0/18 | GFSLNEYGIS | VIYSDGRRTFYGCSVK | GRTAGTFDS
nd | 0/6 | 1/18 | GYDLQDYGIS | VIYADGVRAFYHQSVK | GQLAGIFLL
nd | 0/6 | 0/18 | GFTLNWYGIS | VIYSDGRRTFYGDSVK | GRAAFTFDQ
nd | 0/6 | 0/18 | GFTLNKYGIS | VIYADGRRTFYGDKVK | GRAIGTFDV
nd | 0/6 | 0/18 | GFNLSEYGIS | VIYADGRRTAYKDTVK | GVRTWQFDL
nd | 0/6 | 0/18 | GFWLNEYGIS | VIYSDGRRTFYGDSVK | GRAAGTFWS
nd | 0/6 | 0/18 | GFDIDEYGVS | VIYADGFREAYAESVK | GLIQTGFTV
nd | 0/6 | 0/18 | GFTLNEYGIS | VIYSDGRRTFYGDSVK | GRASVTFDM
nd | 0/6 | 0/18 | GFQIDEYGIS | VIYADGKRSGYKNEVK | GNFNVSGSV
nd | 0/6 | 0/18 | GFDLAEYGIS | VIYADGQRKSYANSFK | GRLSGQNIM
nd | 0/6 | 1/18 | GFDIDEMGIS | VIYADGKRTAYSNQVK | GNINKDGMS
nd | 0/6 | 0/18 | GFHLNSYGIS | VIYSDGRRTFYVDSVK | GKAAGTFDS
nd | 0/6 | 1/18 | EFDLNNYGIS | VIYADGLRTAYETSFK | GDNAGTFVS
nd | 0/6 | 0/18 | GFDLGEYGVS | VIYADGHRAAYTDNVK | GVESGSIQN

From the list, the first 6 with no signal in any replicate:

CDR-H1 | CDR-H2 | CDR-H3 | log10 Kd (nM), mean | replicates with signal | empty controls
GYDLQDYGIS | VIYADGVRAFYHQSVK | GQLAGIFLL | nd | 0/6 | 1/18
GFTLNWYGIS | VIYSDGRRTFYGDSVK | GRAAFTFDQ | nd | 0/6 | 0/18
GFTLNKYGIS | VIYADGRRTFYGDKVK | GRAIGTFDV | nd | 0/6 | 0/18
GFNLSEYGIS | VIYADGRRTAYKDTVK | GVRTWQFDL | nd | 0/6 | 0/18
GFWLNEYGIS | VIYSDGRRTFYGDSVK | GRAAGTFWS | nd | 0/6 | 0/18
GFDIDEYGVS | VIYADGFREAYAESVK | GLIQTGFTV | nd | 0/6 | 0/18

Values reported by Li et al. 2023, doi:10.1038/s41467-023-39022-2 (FLAb copy).